{"sequences": {"note": "Chains of the proteins cited; added tags and fusions are not shown. Lines headed by an entry give the natural chain unless they say otherwise; changes in a name come on top.", "UniProt P14902, whole entry, looked up": "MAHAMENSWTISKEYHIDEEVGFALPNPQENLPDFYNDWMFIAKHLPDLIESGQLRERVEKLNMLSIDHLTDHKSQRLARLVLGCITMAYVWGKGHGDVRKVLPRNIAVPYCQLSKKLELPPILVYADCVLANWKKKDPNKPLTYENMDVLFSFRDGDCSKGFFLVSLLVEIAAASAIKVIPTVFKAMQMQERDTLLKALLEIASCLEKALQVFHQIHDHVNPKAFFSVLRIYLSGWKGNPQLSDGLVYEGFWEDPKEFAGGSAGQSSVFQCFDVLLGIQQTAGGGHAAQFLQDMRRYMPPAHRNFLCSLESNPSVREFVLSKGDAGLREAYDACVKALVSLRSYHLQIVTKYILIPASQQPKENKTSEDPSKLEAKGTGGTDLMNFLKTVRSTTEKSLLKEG", "UniProt P48775": "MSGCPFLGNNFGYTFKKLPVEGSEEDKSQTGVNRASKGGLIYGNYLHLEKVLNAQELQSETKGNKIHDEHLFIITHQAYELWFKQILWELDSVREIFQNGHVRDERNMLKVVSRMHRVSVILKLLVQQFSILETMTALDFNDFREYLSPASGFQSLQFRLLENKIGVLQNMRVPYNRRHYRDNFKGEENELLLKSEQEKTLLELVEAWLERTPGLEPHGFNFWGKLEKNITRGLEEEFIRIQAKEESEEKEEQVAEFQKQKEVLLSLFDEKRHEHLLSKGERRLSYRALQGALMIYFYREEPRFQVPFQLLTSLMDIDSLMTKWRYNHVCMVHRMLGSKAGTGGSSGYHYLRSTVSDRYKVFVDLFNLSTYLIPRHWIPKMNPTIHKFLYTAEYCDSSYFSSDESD"}, "source": "ChEMBL document CHEMBL4811262", "about": "“Parallel discovery of selective and dual inhibitors of tryptophan dioxygenases IDO1 and TDO2 with a newly-modified enzymatic assay” (Bioorg Med Chem, 2021)", "key": {"[1]": {"molecular_target": "Indoleamine 2,3-dioxygenase 1 (Homo sapiens, UniProt P14902)"}, "[2]": {"molecular_target": "Tryptophan 2,3-dioxygenase (Homo sapiens, UniProt P48775)", "experiment": "Inhibition of recombinant human TDO2 expressed in Escherichia coli BL21 (DE3) assessed as reduction in N-formylkynurenine formation using L-tryptophan as substrate incubated for 30 mins by methylene blue reagent based concurrent assay"}}}
{"smiles": "Nc1cccc2c([As](=O)(O)O)cccc12", "values": [{"measurement": "IC50", "setting": "[1]", "result": 45.7, "unit": "µM"}, {"measurement": "IC50", "setting": "[2]", "result": 37.9, "unit": "µM"}]}
